Test [1] concerns the target low density lipoprotein receptor-related protein (LRP-1), purified. Nature of the test: solid phase competition against ^125I-thrombin:PAI-1 on LRP-1-coated wells.
Test [2] deals with glycoprotein 330 / LRP-2, purified. Nature of the test: solid phase competition against ^125I-thrombin:PAI-1 on LRP-2-coated wells.
Test [3] has the same target. Nature of the test: solid phase binding, homologous ligand displacement, single class of sites (program Ligand).
Test [4] deals with low density lipoprotein receptor-related protein (LRP-1), purified. The description is as above.

Some results are limits rather than exact numbers.

Broadly, the Ki is a measure of affinity in units of concentration, obtained from inhibition or displacement. A higher Ki goes with weaker binding. Take “human α-thrombin (from UniProt P00734 328-622) (enzyme)”: the Ki in test [1] and in test [2] was greater than 700 nM in each case.
As a reminder, the Kd is the concentration at which binding is half-saturated. As to “thrombin:PAI-1 complex (from UniProt P00734 328-622)”, the Kd in test [3] worked out at 13 nM; in test [4], 3.3 nM.

The values above are taken from patent publication US20030216321A1.
